# FireProtDB (doi:10.1110/ps.840101)
# B1: Alpha-1-antitrypsin, P01009 (parent)
# chain: MPSSVSWGILLLAGLCCLVPVSLAEDPQGDAAQKTDTSHHDQDHPTFNKITPNLAEFAFSLYRQLAHQSNSTNIFFSPVSIATAFAMLSLGTKADTHDEILEGLNFNLTEIPEAQIHEGFQELLRTLNQPDSQLQLTTGNGLFLSEGLKLVDKFLEDVKKLYHSEAFTVNFGDTEEAKKQINDYVEKGTQGKIVDLVKELDRDTVFALVNYIFFKGKWERPFEVKDTEEEDFHVDQVTTVKVPMMKRLGMFNIQHCKKLSSWVLLMKYLGNATAIFFLPDEGKLQHLENELTHDIITKFLENEDRRSASLHLPKLSITGTYDLKSVLGQLGITKVFSNGADLSGVTEEAPLKLSKAVHKAVLTIDEKGTEAAGAMFLEAIPMSIPPEVKFNKPFVFLMIEQNTKSPLFMGKVVNPTQK
# Variants of: B1
# Conditions: Homo sapiens; pH 6.5; 25 °C; GdnHCl; Fluorescence; phosphate 10 mM; NaCl 50 mM; reversible: Unknown; structure 1QLP; whole UniProt chain shown
row,Variant,ddG of mutation (higher = less stable)
1,V197I,-0.5 kcal/mol
2,V169L,0.7 kcal/mol
3,A274V,0.4 kcal/mol
4,V345L,1.2 kcal/mol
5,A55V,-0.6 kcal/mol
6,V388L,0.3 kcal/mol
7,V169I,-0.2 kcal/mol
8,A274L,1 kcal/mol
9,A272F,-1.8 kcal/mol
